Measured values taken from paper PMC6226371 (Journal of medicinal chemistry, 2018).

By UniProt entry, the sequences of proteins in these tests, tags left out.
UniProt P32245, whole entry: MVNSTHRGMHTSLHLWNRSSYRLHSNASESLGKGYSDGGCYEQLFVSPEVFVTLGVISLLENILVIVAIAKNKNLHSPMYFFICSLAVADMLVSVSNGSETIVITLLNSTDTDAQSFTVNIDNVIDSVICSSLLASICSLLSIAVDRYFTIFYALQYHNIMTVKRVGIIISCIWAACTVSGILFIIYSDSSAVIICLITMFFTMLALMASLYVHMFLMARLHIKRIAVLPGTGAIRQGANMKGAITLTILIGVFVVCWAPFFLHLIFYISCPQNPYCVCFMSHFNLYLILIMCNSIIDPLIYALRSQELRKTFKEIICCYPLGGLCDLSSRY

Experiments:
[1] = biological target: hMC4R PRESTO-Tango plasmid construct (human) (UniProt P32245)
[2] = biological target: human melanocortin-4 receptor (hMC4R-Flag) (human) (UniProt P32245)

B1: CJL-1–14 (Ac-His-DPhe-Arg-Trp-NH2) (peptide)
peptide: HFRW
modifications: N-terminal acetyl; D-Phe at 2; C-terminal amide
For B1, the β-arrestin2 recruitment to hMC4R, EC50 (PRESTO-Tango) [1] was 290 nM and the cAMP signaling EC50 (AlphaScreen, HEK293 cells stably expressing hMC4R) [2] was 1.8 nM.
